Test results taken from ChEMBL document CHEMBL1127054, “3-Aryl-2-(3'-substituted-1',2',4'-oxadiazol-5'-yl)tropane analogues of cocaine: affinities at the cocaine binding site at the dopamine, serotonin, and norepinephrine transporters” (J Med Chem, 1993).

Sequences of proteins named here, by UniProt entry; tags and fusion partners are left off.
UniProt P23977, whole entry: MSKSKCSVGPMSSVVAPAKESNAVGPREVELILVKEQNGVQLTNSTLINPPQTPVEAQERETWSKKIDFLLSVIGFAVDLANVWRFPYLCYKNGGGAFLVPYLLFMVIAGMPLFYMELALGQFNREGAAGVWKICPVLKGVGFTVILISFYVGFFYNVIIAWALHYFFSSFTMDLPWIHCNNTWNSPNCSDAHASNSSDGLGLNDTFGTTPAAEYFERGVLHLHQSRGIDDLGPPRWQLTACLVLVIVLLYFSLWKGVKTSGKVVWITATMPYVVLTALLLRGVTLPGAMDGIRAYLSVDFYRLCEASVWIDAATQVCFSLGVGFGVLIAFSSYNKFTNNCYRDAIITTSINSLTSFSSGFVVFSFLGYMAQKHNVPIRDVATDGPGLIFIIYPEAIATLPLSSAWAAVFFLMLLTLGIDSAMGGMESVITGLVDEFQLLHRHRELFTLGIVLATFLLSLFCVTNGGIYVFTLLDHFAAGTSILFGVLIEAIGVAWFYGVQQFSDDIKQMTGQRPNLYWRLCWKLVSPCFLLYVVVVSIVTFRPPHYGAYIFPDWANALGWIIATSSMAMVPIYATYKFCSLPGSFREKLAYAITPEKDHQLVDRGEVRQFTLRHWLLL

Biological target: Sodium-dependent dopamine transporter (Rattus norvegicus, UniProt P23977)
Test: Binding affinity towards Dopamine transporter by displacement of [3H]WIN-35428 radioligand from rat brain

| SMILES | IC50 [nM] |
| --- | --- |
| COC(=O)C1C2CC[C@H](C[C@@H]1c1ccc(Cl)cc1)N2C (some centres not stated) | 1.12 |
| Cc1noc(C2C3CC[C@H](C[C@@H]2c2ccc(Cl)cc2)N3C)n1 (some centres not stated) | 4.05 |
